Patent US20260382612A1, “ANTI CANCER COMBINATIONS COMPRISING TARGETED THERAPY” (published 2026)

How the values were obtained:
[1] = test system: Human KRAS G12D mutation positive AsPC-1 pancreatic cancer cell line-derived xenograft; test: In vivo combination therapy in AsPC-1 xenograft mice (Example B); conditions: Table 4, Example 1 30 mg/kg i.v. QW, Afatinib 12.5 mg/kg p.o. QD, Everolimus 5 mg/kg p.o. QD, monotherapy with the other solvent
[2] = test system: Human KRAS G12D mutation positive HPAC pancreatic cancer cell line and human CD3-positive T cells, mixed xenograft; test: In vivo combination therapy with immune checkpoint inhibitor in mixed HPAC / CD3-positive T cell xenograft model (Example C); conditions: Table 5, Example 1 30 mg/kg i.v. QW, Nivolumab 250 μg/head i.p. TIW, monotherapy with the other solvent
[3] = test system: Human KRAS G12D mutation positive GP5d colorectal cancer cell line-derived xenograft; test: In vivo combination therapy with cetuximab in GP5d xenograft mice (Example E); conditions: Table 7, day 21 vs day 0, Example 1 30 mg/kg i.v. QW, Cetuximab 50 mg/kg i.p. BIW, monotherapy with the other solvent
[4] = test system: Human KRAS G12D mutation positive GP5d colorectal cancer cell line-derived xenograft; test: In vivo combination therapy in GP5d xenograft mice (Example D); conditions: Table 6, Example 1 30 mg/kg i.v. QW, Alpelisib 15 mg/kg p.o. QD, MRTX0902 50 mg/kg p.o. BID, Alisertib 10 mg/kg p.o. QD, monotherapy with the other solvent
[5] = test system: Human KRAS G12D mutation positive KP-4 pancreatic cancer cell line-derived xenograft; test: In vivo combination therapy in KP-4 xenograft mice (Example A1); conditions: Table 2, Example 1 30 mg/kg i.v. QW, Palbociclib 60 mg/kg p.o. QD, TNO155 10 mg/kg p.o. BID, monotherapy with the other solvent
[6] = test system: Human KRAS G12D mutation positive KP-4 pancreatic cancer cell line-derived xenograft; test: In vivo combination therapy in KP-4 xenograft mice (Example A2); conditions: Table 3, Example 1 30 mg/kg i.v. QW, Alpelisib 15 mg/kg p.o. QD, MRTX0902 50 mg/kg p.o. BID, Alisertib 10 mg/kg p.o. QD, monotherapy with the other solvent

Compound | TGI (%) after 21 days of the first treatment [1] [%] | TGI (%) after 14 days of the first treatment [2] [%] | TGI (%) [3] [%] | TGI (%) after 20 days of the first treatment [4] [%] | TGI (%) after 21 days of the first treatment [5] [%] | TGI (%) after 21 days of the first treatment [6] [%]
Cc1ncsc1-c1ccc([C@H](CO)NC(=O)[C@@H]2C[C@@H](O)CN2C(=O)[C@H](C(C)C)n2cc(-c3ccc(COc4c(-c5c(C)c(F)cc6[nH]ncc56)c(C5CC5)cc5c(N6C[C@@H]7C[C@H]6CN7)nc(OC6CCOCC6)nc45)cc3)nn2)cc1 | 47 | 85 | 55 | 102 | 65 | 16
Cc1nc(NC(=O)N2CCC[C@H]2C(N)=O)sc1-c1ccnc(C(C)(C)C(F)(F)F)c1 | – | – | – | 16 | – | −2
CN(C)C/C=C/C(=O)Nc1cc2c(Nc3ccc(F)c(Cl)c3)ncnc2cc1O[C@H]1CCOC1 | 40 | – | – | – | – | –
CO[C@H]1C[C@@H]2CC[C@@H](C)[C@@](O)(O2)C(=O)C(=O)N2CCCC[C@H]2C(=O)O[C@H]([C@H](C)C[C@@H]2CC[C@@H](OCCO)[C@H](OC)C2)CC(=O)[C@H](C)/C=C(\C)[C@@H](O)[C@@H](OC)C(=O)[C@H](C)C[C@H](C)/C=C/C=C/C=C/1C | 41 | – | – | – | – | –
C[C@@H]1OCC2(CCN(c3cnc(Sc4ccnc(N)c4Cl)c(N)n3)CC2)[C@@H]1N | – | – | – | – | 90 | –
COc1cc(Nc2ncc3c(n2)-c2ccc(Cl)cc2C(c2c(F)cccc2OC)=NC3)ccc1C(=O)O | – | – | – | −3 | – | −10
